{"sequences": {"note": "By UniProt entry, the sequences of proteins in these tests, tags left out.", "UniProt Q96S37, whole entry K393D": "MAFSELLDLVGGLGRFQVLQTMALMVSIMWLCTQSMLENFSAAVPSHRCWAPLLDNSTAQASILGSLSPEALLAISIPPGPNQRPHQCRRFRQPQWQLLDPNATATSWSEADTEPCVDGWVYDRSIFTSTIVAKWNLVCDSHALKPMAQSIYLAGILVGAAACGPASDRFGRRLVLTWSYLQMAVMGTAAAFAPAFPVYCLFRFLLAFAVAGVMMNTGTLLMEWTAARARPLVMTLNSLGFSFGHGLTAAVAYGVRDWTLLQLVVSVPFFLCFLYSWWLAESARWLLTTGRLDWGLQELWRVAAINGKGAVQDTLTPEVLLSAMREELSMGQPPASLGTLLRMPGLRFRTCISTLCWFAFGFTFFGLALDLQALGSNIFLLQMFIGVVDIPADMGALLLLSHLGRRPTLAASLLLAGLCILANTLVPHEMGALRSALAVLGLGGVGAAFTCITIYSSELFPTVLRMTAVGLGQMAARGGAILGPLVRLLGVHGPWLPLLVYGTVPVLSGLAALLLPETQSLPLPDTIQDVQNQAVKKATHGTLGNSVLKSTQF", "UniProt Q96S37, whole entry K393A": "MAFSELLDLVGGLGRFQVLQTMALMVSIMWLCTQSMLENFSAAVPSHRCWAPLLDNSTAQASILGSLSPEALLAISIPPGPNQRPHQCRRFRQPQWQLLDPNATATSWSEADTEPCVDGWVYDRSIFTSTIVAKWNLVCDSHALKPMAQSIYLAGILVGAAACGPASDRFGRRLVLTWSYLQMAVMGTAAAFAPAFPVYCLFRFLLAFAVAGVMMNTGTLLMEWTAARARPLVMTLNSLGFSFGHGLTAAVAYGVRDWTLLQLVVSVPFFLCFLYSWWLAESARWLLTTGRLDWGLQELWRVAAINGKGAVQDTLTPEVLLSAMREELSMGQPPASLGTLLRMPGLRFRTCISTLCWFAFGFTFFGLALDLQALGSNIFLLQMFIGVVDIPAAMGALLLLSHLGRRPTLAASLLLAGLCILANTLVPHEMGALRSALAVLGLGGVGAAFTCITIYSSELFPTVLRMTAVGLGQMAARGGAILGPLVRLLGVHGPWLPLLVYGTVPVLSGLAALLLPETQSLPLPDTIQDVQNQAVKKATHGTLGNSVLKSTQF", "UniProt Q96S37, whole entry K393H": "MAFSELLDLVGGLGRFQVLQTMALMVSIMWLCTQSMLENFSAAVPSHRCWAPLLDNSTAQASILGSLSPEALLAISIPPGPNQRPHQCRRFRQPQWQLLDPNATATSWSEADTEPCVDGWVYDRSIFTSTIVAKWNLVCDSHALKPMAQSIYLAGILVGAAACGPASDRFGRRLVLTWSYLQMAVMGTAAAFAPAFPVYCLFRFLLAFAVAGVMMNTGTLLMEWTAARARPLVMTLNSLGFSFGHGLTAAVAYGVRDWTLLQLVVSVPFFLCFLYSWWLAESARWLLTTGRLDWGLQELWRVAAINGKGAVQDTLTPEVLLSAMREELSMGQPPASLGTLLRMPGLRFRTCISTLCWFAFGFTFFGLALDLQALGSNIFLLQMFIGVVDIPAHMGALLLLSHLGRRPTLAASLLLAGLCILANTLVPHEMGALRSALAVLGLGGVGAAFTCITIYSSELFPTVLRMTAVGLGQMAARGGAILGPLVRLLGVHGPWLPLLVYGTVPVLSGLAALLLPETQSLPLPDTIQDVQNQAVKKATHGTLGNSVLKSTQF", "UniProt Q96S37, whole entry K393E": "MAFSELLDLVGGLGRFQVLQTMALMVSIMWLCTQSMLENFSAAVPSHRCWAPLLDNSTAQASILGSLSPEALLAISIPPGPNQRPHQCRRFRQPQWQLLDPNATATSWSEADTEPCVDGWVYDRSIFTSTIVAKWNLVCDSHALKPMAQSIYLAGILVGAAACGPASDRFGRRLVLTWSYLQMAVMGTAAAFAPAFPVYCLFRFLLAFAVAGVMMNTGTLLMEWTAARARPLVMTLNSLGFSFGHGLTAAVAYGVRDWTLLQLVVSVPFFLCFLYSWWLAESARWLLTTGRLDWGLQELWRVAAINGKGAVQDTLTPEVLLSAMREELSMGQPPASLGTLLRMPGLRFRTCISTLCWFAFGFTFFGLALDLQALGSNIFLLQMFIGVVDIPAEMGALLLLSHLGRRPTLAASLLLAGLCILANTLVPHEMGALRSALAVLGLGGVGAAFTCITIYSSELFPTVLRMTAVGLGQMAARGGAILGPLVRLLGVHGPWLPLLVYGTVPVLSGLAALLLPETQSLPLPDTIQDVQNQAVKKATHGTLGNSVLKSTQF", "UniProt Q96S37, whole entry K393R": "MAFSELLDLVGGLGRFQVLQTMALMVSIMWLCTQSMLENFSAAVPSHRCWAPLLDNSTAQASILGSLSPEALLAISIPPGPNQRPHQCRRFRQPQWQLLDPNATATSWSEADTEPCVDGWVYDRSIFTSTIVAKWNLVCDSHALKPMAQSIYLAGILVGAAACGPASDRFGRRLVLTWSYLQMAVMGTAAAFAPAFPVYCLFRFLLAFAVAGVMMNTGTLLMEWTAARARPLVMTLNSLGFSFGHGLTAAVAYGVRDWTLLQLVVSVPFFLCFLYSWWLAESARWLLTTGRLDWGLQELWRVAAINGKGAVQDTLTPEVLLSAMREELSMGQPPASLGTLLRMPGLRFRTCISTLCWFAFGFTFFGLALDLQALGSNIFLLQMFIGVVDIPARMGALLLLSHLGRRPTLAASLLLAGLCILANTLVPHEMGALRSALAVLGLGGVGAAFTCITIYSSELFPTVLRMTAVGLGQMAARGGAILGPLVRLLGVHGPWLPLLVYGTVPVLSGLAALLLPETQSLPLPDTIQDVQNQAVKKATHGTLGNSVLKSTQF"}, "source": "paper PMC9521027", "about": "(ACS Omega, 2022)", "key": {"URAT1 K393D mutant": {"target": "URAT1 K393D mutant (Homo sapiens, UniProt Q96S37, K393D)", "assay": "14C-uric acid uptake assay in transfected HEK293 cells", "assay_type": "cell-based"}, "URAT1 K393A mutant": {"target": "URAT1 K393A mutant (Homo sapiens, UniProt Q96S37, K393A)", "assay": "14C-uric acid uptake assay in transfected HEK293 cells", "assay_type": "cell-based"}, "URAT1 K393H mutant": {"target": "URAT1 K393H mutant (Homo sapiens, UniProt Q96S37, K393H)", "assay": "14C-uric acid uptake assay in transfected HEK293 cells", "assay_type": "cell-based"}, "URAT1 K393E mutant": {"target": "URAT1 K393E mutant (Homo sapiens, UniProt Q96S37, K393E)", "assay": "14C-uric acid uptake assay in transfected HEK293 cells", "assay_type": "cell-based"}, "wild-type hURAT1": {"target": "wild-type hURAT1 (Homo sapiens, UniProt Q96S37)", "assay": "cell-based"}, "URAT1 K393R mutant": {"target": "URAT1 K393R mutant (Homo sapiens, UniProt Q96S37, K393R)", "assay": "14C-uric acid uptake assay in transfected HEK293 cells", "assay_type": "cell-based"}}, "data": [{"smiles": "O=C(O)CSc1nnc(Br)n1-c1ccc(C2CC2)c2ccccc12", "note": "[lesinurad]", "values": [{"measurement": "IC50", "setting": "URAT1 K393D mutant", "result": "8.57 ± 2.65", "unit": "µM"}, {"measurement": "IC50", "setting": "URAT1 K393A mutant", "result": "9.45 ± 4.51", "unit": "µM"}, {"measurement": "IC50", "setting": "URAT1 K393H mutant", "result": "8.79 ± 1.26", "unit": "µM"}, {"measurement": "IC50", "setting": "URAT1 K393E mutant", "result": "7.89 ± 3.66", "unit": "µM"}, {"measurement": "IC50", "setting": "wild-type hURAT1", "result": "6.94 ± 2.41", "unit": "µM"}, {"measurement": "IC50", "setting": "URAT1 K393R mutant", "result": "6.04 ± 1.62", "unit": "µM"}]}]}
